The values below come from ChEMBL document CHEMBL4351003, “Selective Toll-like receptor 7 agonists with novel chromeno[3,4-d]imidazol-4(1H)-one and 2-(trifluoromethyl)quinoline/ quinazoline-4-amine scaffolds” (Eur J Med Chem, 2019).

Activity calls are given as the source filed them. No cut-off for these calls is given here.

The test addresses T1, Toll-like receptor 7 (Homo sapiens) (UniProt Q9NYK1).
T1 sequence (whole entry): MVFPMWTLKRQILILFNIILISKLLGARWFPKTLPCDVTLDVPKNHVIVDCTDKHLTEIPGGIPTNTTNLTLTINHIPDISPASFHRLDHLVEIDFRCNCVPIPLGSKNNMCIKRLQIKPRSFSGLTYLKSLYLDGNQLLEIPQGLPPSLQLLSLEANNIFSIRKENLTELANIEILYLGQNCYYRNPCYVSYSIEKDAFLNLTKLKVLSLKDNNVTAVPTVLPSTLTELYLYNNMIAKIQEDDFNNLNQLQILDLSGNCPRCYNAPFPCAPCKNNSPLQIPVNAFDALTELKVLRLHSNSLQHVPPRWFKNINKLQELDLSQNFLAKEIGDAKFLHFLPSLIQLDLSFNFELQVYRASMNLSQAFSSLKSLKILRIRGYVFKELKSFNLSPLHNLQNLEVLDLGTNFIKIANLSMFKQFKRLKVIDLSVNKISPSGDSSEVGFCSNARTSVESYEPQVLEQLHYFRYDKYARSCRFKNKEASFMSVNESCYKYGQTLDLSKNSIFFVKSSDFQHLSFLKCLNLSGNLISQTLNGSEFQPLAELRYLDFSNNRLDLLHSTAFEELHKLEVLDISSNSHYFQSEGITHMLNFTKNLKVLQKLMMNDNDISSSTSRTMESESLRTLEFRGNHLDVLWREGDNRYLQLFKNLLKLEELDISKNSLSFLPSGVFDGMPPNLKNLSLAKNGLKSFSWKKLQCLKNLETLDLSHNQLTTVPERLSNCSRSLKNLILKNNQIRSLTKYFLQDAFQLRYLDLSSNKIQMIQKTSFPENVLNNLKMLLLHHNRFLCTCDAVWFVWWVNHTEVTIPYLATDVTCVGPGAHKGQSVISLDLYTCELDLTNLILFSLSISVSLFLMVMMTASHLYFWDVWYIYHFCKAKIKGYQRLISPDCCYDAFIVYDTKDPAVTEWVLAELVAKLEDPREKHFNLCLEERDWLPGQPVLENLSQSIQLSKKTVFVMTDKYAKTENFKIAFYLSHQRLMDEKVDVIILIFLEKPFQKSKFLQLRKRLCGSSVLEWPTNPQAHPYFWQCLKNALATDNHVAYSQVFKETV
In words: Antagonist activity at human TLR7 in HEK293 cells cotransfected with SEAP reporter gene assessed as activity of SEAP preincubated for 2 hrs followed by imiquimod addition further incubated for 24 hrs by quanti-blue staining based SEAP reporter gene assay. It is filed as cell-based. On the technique in general: Reporter assays use an easily measured gene product as a stand-in for the process of interest.
As for `Nc1ccc(CNc2nc(C(F)(F)F)nc3ccccc23)cc1`, the outcome was inactive.

As for `CC1CCCN(c2cc(C(F)(F)F)nc3ccccc23)C1` (centres undefined), the result was inactive.

On to `CC(C)n1cnc2c(=O)oc3ccccc3c21`, for which the outcome was inactive.

As to `C=CCn1cnc2c(=O)oc3ccccc3c21`, the result was inactive.

`CC(C)Cn1cnc2c(=O)oc3ccc([N+](=O)[O-])cc3c21`: the outcome was inactive.

Turning to `CC(C)Cn1cnc2c(=O)oc3ccc(F)cc3c21`, the result was inactive.

For `FC(F)(F)c1nc(Cl)c2ccccc2n1`, the result was inactive.

`COc1ccc2oc(=O)c3ncn(CC(C)C)c3c2c1`: the outcome was inactive.

For `CCn1cnc2c(=O)oc3ccc(F)cc3c21`, the outcome was inactive.

With `Oc1nc(C(F)(F)F)nc2ccccc12`, the result was inactive.

Take `CCCn1cnc2c(=O)oc3ccccc3c21`: the outcome was inactive.

In the case of `COCCn1cnc2c(=O)oc3ccccc3c21`, the result was inactive.

With `FC(F)(F)c1nc(NCCN2CCCCC2)c2ccccc2n1`, the outcome was inactive.

As to `COCCCn1cnc2c(=O)oc3ccccc3c21`, the result was inactive.

`FC(F)(F)c1nc(N2CCOCC2)c2ccccc2n1`: the result was inactive.

Take `Nc1nc(C(F)(F)F)nc2ccccc12`: the result was inactive.

In the case of `O=C(O)CNc1nc(C(F)(F)F)nc2ccccc12`, the outcome was inactive.

Consider `CN1CCN(c2nc(C(F)(F)F)nc3ccccc23)CC1`, for which the outcome was inactive.

As for `FC(F)(F)c1nc(NCCc2cnc[nH]2)c2ccccc2n1`, the result was inactive.
